We go through one molecule from ChEMBL document CHEMBL1142492 (J Med Chem, 2008).

By UniProt entry, the sequences of proteins in these tests, tags left out. Where a name states a change or a piece, a line headed by the entry shows the natural chain unless it says otherwise.
UniProt P31749: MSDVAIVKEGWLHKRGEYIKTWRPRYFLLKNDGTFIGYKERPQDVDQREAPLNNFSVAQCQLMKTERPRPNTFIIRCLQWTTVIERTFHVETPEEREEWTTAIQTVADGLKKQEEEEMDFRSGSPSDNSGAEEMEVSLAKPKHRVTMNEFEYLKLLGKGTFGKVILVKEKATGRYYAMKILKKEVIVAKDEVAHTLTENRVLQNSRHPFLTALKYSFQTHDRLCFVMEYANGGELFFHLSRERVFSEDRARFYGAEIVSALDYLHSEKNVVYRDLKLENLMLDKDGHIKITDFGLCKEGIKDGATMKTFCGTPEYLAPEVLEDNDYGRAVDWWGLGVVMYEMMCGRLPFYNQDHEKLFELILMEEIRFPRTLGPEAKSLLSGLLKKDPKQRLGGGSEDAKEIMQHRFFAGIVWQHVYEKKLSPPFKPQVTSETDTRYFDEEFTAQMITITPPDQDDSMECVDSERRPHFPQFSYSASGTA
UniProt O75116: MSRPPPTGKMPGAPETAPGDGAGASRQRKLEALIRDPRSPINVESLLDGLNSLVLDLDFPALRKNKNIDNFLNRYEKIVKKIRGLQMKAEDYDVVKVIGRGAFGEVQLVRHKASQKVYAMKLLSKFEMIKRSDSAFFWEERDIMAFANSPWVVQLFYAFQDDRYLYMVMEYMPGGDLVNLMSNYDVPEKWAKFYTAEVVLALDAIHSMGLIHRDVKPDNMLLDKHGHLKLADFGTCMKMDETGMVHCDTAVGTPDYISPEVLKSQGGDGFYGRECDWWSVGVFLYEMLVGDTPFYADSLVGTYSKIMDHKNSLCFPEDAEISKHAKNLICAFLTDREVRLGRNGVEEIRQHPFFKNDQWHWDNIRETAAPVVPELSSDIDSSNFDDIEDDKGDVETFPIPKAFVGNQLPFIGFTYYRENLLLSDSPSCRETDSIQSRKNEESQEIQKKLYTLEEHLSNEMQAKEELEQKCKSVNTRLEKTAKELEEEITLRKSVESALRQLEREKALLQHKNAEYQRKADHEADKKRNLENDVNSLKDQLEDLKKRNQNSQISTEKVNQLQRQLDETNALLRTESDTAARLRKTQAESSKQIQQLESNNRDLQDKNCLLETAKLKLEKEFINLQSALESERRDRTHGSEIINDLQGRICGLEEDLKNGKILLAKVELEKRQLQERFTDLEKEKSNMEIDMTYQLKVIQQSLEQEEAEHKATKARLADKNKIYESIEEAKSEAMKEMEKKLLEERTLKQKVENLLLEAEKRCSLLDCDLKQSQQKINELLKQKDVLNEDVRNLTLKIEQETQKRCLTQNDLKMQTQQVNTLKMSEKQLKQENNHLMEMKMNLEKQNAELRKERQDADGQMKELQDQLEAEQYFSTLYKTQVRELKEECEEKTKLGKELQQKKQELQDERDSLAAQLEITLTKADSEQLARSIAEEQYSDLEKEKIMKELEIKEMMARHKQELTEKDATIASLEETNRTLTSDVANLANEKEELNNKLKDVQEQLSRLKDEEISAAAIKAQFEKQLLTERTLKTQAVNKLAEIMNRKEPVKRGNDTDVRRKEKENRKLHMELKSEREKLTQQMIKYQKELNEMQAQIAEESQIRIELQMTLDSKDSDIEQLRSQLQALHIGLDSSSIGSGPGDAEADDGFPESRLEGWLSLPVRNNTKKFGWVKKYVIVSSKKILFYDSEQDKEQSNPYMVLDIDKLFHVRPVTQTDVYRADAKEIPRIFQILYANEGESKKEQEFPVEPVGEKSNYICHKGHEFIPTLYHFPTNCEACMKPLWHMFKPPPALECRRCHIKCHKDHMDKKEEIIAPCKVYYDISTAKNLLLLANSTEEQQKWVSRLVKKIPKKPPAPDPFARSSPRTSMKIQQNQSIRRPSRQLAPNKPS

pIC50: −log10 of the molar value.

Usually pIC50 stands for −log10 of the IC50, conventionally taken in molar units. Higher therefore signals a small IC50.

The target of assay [1] is RAC-alpha serine/threonine-protein kinase (Homo sapiens, UniProt P31749). The experiment in a line: Inhibition of AKT1 after 55 mins.
Assay [2] addresses Rho-associated protein kinase 2 (Homo sapiens, UniProt O75116). The assay can be described thus: Inhibition of ROCK2.

Regarding `O=C(Nc1ccc(-c2ccncc2)cc1)C1COc2ccccc2O1` (configuration not stated), the pIC50 in assay [1] is 5.19; in assay [2], 7.34.
